# Yeast mating assay 2: variants of the scFv Ab-91

Target peptide (SARS-CoV-2 spike, HR2 region): PDVDLGDISGINAS

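Phage display of a naive human antibody library on the peptide gave the parent. AAYL51 was designed without a model: most single CDR substitutions and a random sample of double and triple ones. The assay is AlphaSeq: two haploid yeast populations carry antibody and antigen on their surface. The frequency of each diploid, read from paired DNA barcodes, reflects how well the two displayed proteins bind. A regression on co-assayed BCL2-family reference pairs converts the normalised counts of each replicate to an apparent Kd. Each pool was mated in three replicate cultures.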

Each scFv is VL, a 15-residue (Gly4Ser)3 linker, VH, as in the parent Ab-91, and differs from it in the CDRs of the heavy chain only.
VL: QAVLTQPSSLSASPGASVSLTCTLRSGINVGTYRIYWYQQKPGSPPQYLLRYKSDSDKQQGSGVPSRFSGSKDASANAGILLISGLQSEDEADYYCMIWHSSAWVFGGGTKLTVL
VH: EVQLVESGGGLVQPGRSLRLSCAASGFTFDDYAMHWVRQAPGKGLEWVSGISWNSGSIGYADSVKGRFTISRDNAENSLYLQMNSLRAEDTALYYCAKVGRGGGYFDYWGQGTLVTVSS

Each variant is given by its three heavy chain CDRs, as the data file delimits them; those of the parent are GFTFDDYAMH, GISWNSGSIGYADSVK, VGRGGGYFDY.
Affinities are written as log10 Kd with Kd in nM; a lower number is a better binder.
A pair that was not seen in that replicate is written "ND"; this usually means weak binding, but a binder can also be missed.

With GFTFFDYAMH, GISWFSGSITYADSVK, VGRGGGYFDY the result was ND, ND, ND (controls 0 of 9).
With GFTFDDYEMH, MISANSGSIGYADSVK, VGRGGGYFDY the result was ND, ND, ND (controls 0 of 9).
With GFTFDDPAMH, GISCNSKSIGYADSVK, VGRGGGYFDY the result was 5.80, 5.70, ND (controls 6 of 9).
With GFTFDDYAMH, GISWQSGSIGYADNVK, VGRGRGYFDY the result was ND, ND, ND (controls 2 of 9).
With GFTFDDYAMH, GISWNSGSIGYADVVK, CGRYGGYFDY the result was ND, ND, ND (controls 1 of 9).
With GFTMDDYAMH, GISWNSGSIGYADSVK, VARGGGYFGY the result was 1.47, 1.62, 2.89 (controls 1 of 9).
With GFTFDDYAMH, GISWNSGSIGYADSYK, VGRGGADFDY the result was 5.23, 6.83, 4.62 (controls 7 of 9).
With GFTKDDWAMH, GISWNSGSIGYADSYK, VGRGGGYFDY the result was ND, 4.68, ND (controls 0 of 9).
With GFTFDDYAMH, GISWNSGSIGYADSGK, VGGYGGYFDY the result was ND, ND, ND (controls 1 of 9).
With GFTFFDYAMH, GISWNSVSIGYAVSVK, VGRGGGYFDY the result was ND, ND, ND (controls 0 of 9).
With GFTFDDYAMH, GIEWNSGSIGYADSVK, VGSGGGYFDI the result was 5.50, ND, 3.00 (controls 0 of 9).
With PFTFDDYAMH, GISWNSGSIMYADSVK, VGRGGGYFDY the result was ND, ND, ND (controls 0 of 9).
With GFTFYDYAMM, GISWNSGSIGYADSVK, VGRGGGYKDY the result was ND, ND, ND (controls 1 of 9).
With GFTFDDMAMH, TISWNVGSIGYADSVK, VGRGGGYFDY the result was ND, 3.92, ND (controls 1 of 9).
With GFTQDDYAMH, GISWNSWSIGYNDSVK, VGRGGGYFDY the result was 4.64, ND, ND (controls 3 of 9).
With GFTFDDYAMH, GIIWHSGSIGYADSVK, VMRGGGYFDY the result was ND, 5.30, ND (controls 3 of 9).
With GFTFDDYAMH, GISWNSGSDGYLDSVK, HGRGGGYFDY the result was ND, ND, ND (controls 1 of 9).
With GFCFDDYAIH, GISWNSGSIGYADSVK, VGRGGMYFDY the result was 5.14, 4.72, 5.32 (controls 4 of 9).
With GFTFYDYAMH, GISWNSGSCLYADSVK, VGRGGGYFDY the result was 3.74, ND, ND (controls 1 of 9).
With GFTFDPYAMH, GISWNSGEIGYADSVK, VGRGHGYFDY the result was ND, ND, ND (controls 1 of 9).
With GFTFDDYAMH, GVSWNSGSIGYEDSVK, VGTGGGYFDY the result was ND, ND, ND (controls 0 of 9).
With GFTIDDYAMH, GISRNSGSIGYADSVH, VGRGGGYFDY the result was 2.21, 2.40, 1.75 (controls 0 of 9).
With SFTFDDYAMH, GISWNSGSIGYVDSVK, VGRGGAYFDY the result was ND, 3.27, ND (controls 2 of 9).
With GFTFDDYAMH, GIIWNSGSIGYADSVK, VGRGGGYFAY the result was 4.77, ND, ND (controls 2 of 9).
With GFTFDDYWMH, GISWNSGSIGYADSVK, VYGGGGYFDY the result was ND, ND, ND (controls 1 of 9).
With GFTFDDYAMH, GISWNSGSIGHADSSE, VGRGGGYFDY the result was 4.98, ND, ND (controls 2 of 9).
With YFTFDDYAMN, GISWNSGSIGYADDVK, VGRGGGYFDY the result was 5.05, 4.51, ND (controls 6 of 9).
With GFTFDDLAMH, GVSWNSGSIGYADMVK, VGRGGGYFDY the result was ND, ND, ND (controls 1 of 9).
With GFTFDDYAMH, GISWNSGSIGYADSVK, VGHGGGYFDY the result was 2.41, 2.18, 2.14 (controls 0 of 9).
With GFTFDDYAMH, GPSWNSGSIEYADSHK, VGRGGGYFDY the result was 5.65, ND, ND (controls 2 of 9).
With GFTFDDYAMH, GISWNSGIIGYADSFK, VGRGGGYFDY the result was 3.33, ND, 3.57 (controls 0 of 9).
With GFTFDGYAMH, GISWNSGSIGSAHSVK, VGRGGGYFDY the result was ND, 4.55, 4.44 (controls 1 of 9).
With GFTFDDYAMH, GISWSSGSIGYADSVM, VGRGGGYDDY the result was ND, ND, ND (controls 4 of 9).
With GFTFDDYAVH, GISWNSGSIGYADSVK, VGRGGQYFDY the result was ND, ND, ND (controls 1 of 9).

Repeated from above, the 3 best binders with a signal in all replicates:

{"CDR-H1": "GFTMDDYAMH", "CDR-H2": "GISWNSGSIGYADSVK", "CDR-H3": "VARGGGYFGY", "log10 Kd, replicates": "1.47, 1.62, 2.89", "signal with controls": "1/9"}
{"CDR-H1": "GFTIDDYAMH", "CDR-H2": "GISRNSGSIGYADSVH", "CDR-H3": "VGRGGGYFDY", "log10 Kd, replicates": "2.21, 2.40, 1.75", "signal with controls": "0/9"}
{"CDR-H1": "GFTFDDYAMH", "CDR-H2": "GISWNSGSIGYADSVK", "CDR-H3": "VGHGGGYFDY", "log10 Kd, replicates": "2.41, 2.18, 2.14", "signal with controls": "0/9"}

In this assay the parent's reference entry averaged 1.86; its copy inside this library read 0.88.
As a blank, each scFv also met three strains without target: over library AAYL51, 21% of these pairings were detected, typically at 4.54 and seldom below 3.26. The control count says in how many pairings with the empty strains this scFv gave a signal.

Reference: Engelhart et al. 2022, doi:10.1038/s41597-022-01779-4. File: FLAb, binding data.